Each structure is given as a SMILES string. The list shows a part of the results, in another mix than the full data. Calls of active or inactive are those of the source.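 Rule for the calls: active = mean replicate activation of at least 50% with a set share of replicates each reaching 50%; inconclusive = only one of those two conditions met; inactive = mean below 50% and too few replicates reaching it.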

The nature of the assay: HSF-1 response element luciferase induction – NIH3T3-HGL cells, MG132 stress, luminescence, single point, primary screen (AID 504408).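 Note: 0% = median of the neutral control wells and 100% = twice that signal.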 The note with it: NIH3T3-HGL HSF-1 luciferase reporter, MG132, 8 h; at 9 µM; active compounds read high; 100% = twice DMSO control signal. In general terms: A reporter such as luciferase makes a cellular process visible.
Regarding `COc1ccc(CN(CCCl)CCCl)cc1Cl`, the activation was inactive: -14.2%.

Take `CN(C)c1cccc(C(=O)NCC2(N3CCCCC3)CCCCC2)c1`: the activation was inactive: -15.3%.

Turning to `CC(C)c1ccc(NC2CCN(C(=O)OC(C)(C)C)CC2)cc1`, the activation was inactive: -7.66%.

For the molecule `COc1cc(OC)c(C(=O)NCC2(N(C)C)CCCCC2)cc1OC`, the activation is inactive: -2.24%.

With `CN1CCC(Nc2cccc(F)c2)CC1`, the activation is inactive: -7.28%.

With `CCCOc1ccc(C(=O)NCC2(N(C)C)CCCCC2)cc1OC`, the activation is inactive: 4.17%.

Consider `O=C(NCC1(N2CCCCC2)CCCCC1)c1ccc(OC(F)F)cc1`, for which the activation was inactive: -7.46%.

On to `O=C(NCC1(N2CCCCC2)CCCCC1)c1cccc([N+](=O)[O-])c1`, for which the activation was inactive: -12.6%.

Take `CCN1CCC(Nc2ccc(Cl)cc2)CC1`: the activation is inactive: -15.1%.

As to `N#CC1(Nc2ccccc2)CCN(CCc2ccccc2)CC1`, the activation was inactive: -12.4%.

With `O=C(NCC1(N2CCCCC2)CCCCC1)c1cccc(C(F)(F)F)c1`, the activation is inactive: 6.02%.

On to `CN1CCN(CCOC(=O)C(O)(c2ccccc2)c2ccccc2)CC1`, for which the activation was inactive: 24.7%.

Turning to `COc1ccc(NC2CCN(C(=O)OC(C)(C)C)CC2)cc1`, the activation is inactive: -7.19%.

In the case of `COc1cc(C(=O)NCC2(N3CCCCC3)CCCCC2)ccc1OC(F)F`, the activation is inactive: 1.64%.

In the case of `O=C(NCC1(N2CCOCC2)CCCCC1)c1cc(=O)[nH]c2ccccc12`, the activation is inactive: -8.19%.

With `CCOc1ccc(C)cc1CN(CCCl)CCCl`, the activation was inactive: 9.46%.

Consider `O=C(NCC1(N2CCCCC2)CCCCC1)c1ccc(F)cc1`, for which the activation was inactive: -8.32%.

Consider `COc1ccc(NC2CCN(CCc3ccccc3)CC2)c(OC)c1`, for which the activation was inactive: -16.4%.

For `CCOC(=O)N1CCC(Nc2ccc(F)cc2)CC1`, the activation is inactive: 21.3%.

For `COc1cc(C(=O)NCC2(N(C)C)CCCCC2)ccc1OC(F)F`, the activation was inactive: -9.18%.

As for `CCOC(=O)N1CCC(Nc2cccc(C)c2)CC1`, the activation is inactive: -4.85%.

As for `Cc1ccc(OCC(C)C)c(CN(CCCl)CCCl)c1`, the activation was inactive: 23%.

For `O=C(NCC1(N2CCCCC2)CCCCC1)c1ccc(=O)[nH]c1`, the activation is inactive: -10.9%.

With `O=C(NCC1(N2CCCCC2)CCCCC1)c1cccs1`, the activation is inactive: -11.4%.

On to `COc1ccc(C(=O)NCC2(N3CCCCC3)CCCCC2)cc1`, for which the activation was inactive: -1.12%.

Take `COc1ccc(C(=O)NCC2(N3CCCCC3)CCCCC2)c(OC)c1OC`: the activation was inactive: -2.15%.

Turning to `CC(C)(C)OC(=O)N1CCC(N(C(=O)c2ccccc2)c2ccc(F)cc2)CC1`, the activation is inactive: -2.72%.

In the case of `CSc1ccccc1C(=O)NCC1(N2CCCCC2)CCCCC1`, the activation was inactive: -4.18%.

For the molecule `O=C(NCC1(N2CCOCC2)CCCCC1)c1cc2ccccc2o1`, the activation was inactive: 31%.

On to `O=C(NCC1(N2CCCCC2)CCCCC1)c1ccc(Cl)nc1`, for which the activation is inactive: 0.527%.

As for `Cc1cc(C)cc(N(C(=O)c2ccccc2)C2CCN(C(=O)OC(C)(C)C)CC2)c1`, the activation is inactive: 3.61%.

Turning to `CCOC(=O)N1CCC(Nc2ccc(OC)cc2)CC1`, the activation was inactive: 0.891%.

As to `O=C(OC1CN2CCC1CC2)C1c2ccccc2Oc2ccccc21` (centres undefined), the activation is inactive: 3.32%.

Take `N#CC1(Nc2ccccc2)CCN(Cc2ccccc2)CC1`: the activation is inactive: -0.679%.

`CCOc1ncccc1C(=O)NCC1(N2CCOCC2)CCCCC1`: the activation was inactive: 7.05%.

In the case of `CN1CCC(Nc2ccc(F)c(Cl)c2)CC1`, the activation was inactive: -1.48%.

For `CCCOc1ccc(C(=O)NCC2(N(C)C)CCCCC2)cc1`, the activation was inactive: 47.1%.

Turning to `CC(C)(C)OC(=O)N1CCC(Nc2ccccc2)CC1`, the activation was inactive: 7.63%.

On to `O=C(O)C1(Nc2ccccc2)CCN(Cc2ccccc2)CC1`, for which the activation was inactive: -5.95%.

Take `CCC(CO)(C(=O)OC1CN2CCC1CC2)c1ccccc1` (centres undefined): the activation was inactive: -9.9%.

As for `COc1cc(OC)cc(C(=O)NCC2(N3CCOCC3)CCCCC2)c1`, the activation is inactive: -3.02%.

As for `COc1cccc(C(=O)N(c2cc(C)cc(C)c2)C2CCN(C(=O)OC(C)(C)C)CC2)c1`, the activation is inactive: 6.18%.

As for `CCCOc1ccc(C)cc1CN(CCCl)CCCl`, the activation is inactive: 17.6%.

Take `CN1CCC(Nc2ccc(Cl)cc2)CC1`: the activation is inactive: -20.1%.

For the molecule `COc1cc(OC)cc(C(=O)NCC2(N3CCCCC3)CCCCC2)c1`, the activation was inactive: 10.3%.

Take `Cc1ccc(C(=O)NCC2(N3CCCCC3)CCCCC2)o1`: the activation was inactive: -10.5%.

Take `Fc1ccccc1NC1CCN(Cc2ccccc2)CC1`: the activation was inactive: 5.78%.

As for `CCN1CCC(Nc2cccc(F)c2)CC1`, the activation is inactive: 1.17%.

Regarding `CN(C)c1ccc(C(=O)NCC2(N3CCCCC3)CCCCC2)cc1`, the activation is inactive: 0.272%.

Regarding `CC(C)(C)OC(=O)N1CCC(N(C(=O)c2ccccc2)c2ccc(Cl)cc2)CC1`, the activation was inactive: 7.39%.

For the molecule `N#Cc1ccc(C(=O)NCC2(N3CCCCC3)CCCCC2)cc1`, the activation is inactive: -3.3%.

On to `c1ccc(CN2CCC(Nc3ccccc3)CC2)cc1`, for which the activation is inactive: -2.84%.

`CCCN1CCC(Nc2cc(OC)cc(OC)c2)CC1`: the activation is inactive: -19.2%.

Consider `CN(C)C1(CNC(=O)c2cccc(C#N)c2)CCCCC1`, for which the activation was inactive: -5.52%.

For `COc1ccc(C(=O)NCC2(N3CCOCC3)CCCCC2)cc1OC`, the activation was inactive: -8.56%.

`N/C(=N\O)c1c(N)no[n+]1[O-]`: the activation is inactive: -11%.

Take `CCOC(=O)N1CCC(Nc2ccc(C)cc2)CC1`: the activation is inactive: -7.87%.

With `O=C(OC1CN2CCC1CC2)C1c2ccccc2C=Cc2ccccc21` (centres undefined), the activation is inactive: -5.21%.

`CCc1cc(C(=O)NCC2(N3CCCCC3)CCCCC2)sc1C`: the activation is inactive: -6.57%.

Source of the values: PubChem BioAssay AID504408 (Broad Institute, 2011).
